These are literature values, as cited in patent publication US20140212981A1, “METHODS AND SYSTEMS FOR DETERMINING THE AMOUNT OF THIOPURINE METABOLITES IN A SAMPLE” (Laboratory Corporation of America Holdings, priority 2012, published 2014).

A value given as a limit tells only on which side of the number the result lay.

For the data set the following is noted: metabolite level in red blood cells; levels in this range require modulation of therapy; cited from earlier work.

In the case of 6-thioguanine nucleotides [6-TGNs], the “Alert Values” is more than 450 pmol/8 × 10^8RBC.
